Apparent affinities of Ab-14 variants for a coronavirus HR2 peptide

Antigen: PDVDLGDISGINAS, a 14-residue peptide of the SARS-CoV-2 spike HR2 region.

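The parent was found by panning a naive human phage display library on the peptide. The variants were designed computationally from a first round of random CDR variants and then made and measured. Their group label is 14H_GP_Gibbs (GP: Gaussian process model; Gibbs: Gibbs sampling; a sequence that several methods proposed may carry one label only). The assay is AlphaSeq: two haploid yeast populations carry antibody and antigen on their surface. Binding brings cells together so that they mate, and sequencing counts the barcode pairs among the diploids. Scores were corrected for input abundance and mapped to Kd with protein pairs of known affinity run in the same pool. Each pool was mated in six replicate cultures.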

The variants keep the light chain, the linker and the frameworks of Ab-14 (scFv order VH, a (GGGGS)3 linker, VL).
VH: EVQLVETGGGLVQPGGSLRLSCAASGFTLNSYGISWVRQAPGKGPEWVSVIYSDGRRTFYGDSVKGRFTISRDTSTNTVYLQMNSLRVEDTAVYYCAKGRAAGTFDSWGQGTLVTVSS
VL: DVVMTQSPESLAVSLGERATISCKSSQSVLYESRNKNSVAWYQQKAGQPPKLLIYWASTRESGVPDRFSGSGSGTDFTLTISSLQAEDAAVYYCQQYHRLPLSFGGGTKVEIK

Positions count from residue 1 of the parent VH; T28E puts E in place of T.
Values are log10 of the apparent Kd in nM; lower means stronger binding.
Averages over replicates are reported, and they cover detected replicates only.
"nd" means that the variant was in the library but no mating with the target was seen in that replicate; the authors take this as a sign of poor binding, and no number exists.
As a blank, each scFv also met three strains without target: over all heavy chain designs, 1% of these pairings were detected, typically at 2.08 and seldom below 0.84. For each scFv, signals with the empty controls are counted beside the result.

With T28E+S63D+R100N+A101T the result was 1.07, nd, -0.53, -1.59, nd, nd (mean -0.35; controls 0 of 18).
With T28D+S31E+A101Q+S107T the result was 0.17, -0.07, -0.03, -0.10, -0.23, 0.11 (mean -0.02; controls 2 of 18).
With T28G+G61S+R100K+A101Q the result was -0.35, 0.00, -0.43, -0.22, -0.32, -0.16 (mean -0.25; controls 0 of 18).
With T28D+S63N+A101E+S107D the result was 0.00, -0.22, 0.00, -0.22, 0.52, -0.25 (mean -0.03; controls 0 of 18).
With T28D+R56M+A101T+D106W the result was nd, nd, nd, nd, nd, nd (controls 0 of 18).
With S31E+R56M+A101T+D106W the result was nd, nd, nd, nd, nd, nd (controls 0 of 18).
With T28S+S31M+R100N+A101T the result was 0.24, 0.26, 0.11, 0.10, 0.07, 0.25 (mean 0.17; controls 0 of 18).
With T28D+G61D+S63D+A101T the result was 0.03, 0.06, -0.04, -0.48, -0.07, 0.04 (mean -0.08; controls 0 of 18).
With T28Q+G61S+S63Q+R100E the result was 0.86, 1.61, nd, 0.09, 1.09, nd (mean 0.91; controls 0 of 18).
With T28S+S31E+G61E+R100T the result was 0.60, 2.29, 0.33, 1.37, 0.75, 0.33 (mean 0.94; controls 0 of 18).
With T28S+G61T+R100L+A101N the result was 0.25, -0.11, 0.14, 0.42, 0.50, 0.16 (mean 0.23; controls 0 of 18).
With T28L+R100K+A101E+S107T the result was 0.18, 0.66, 0.39, 1.45, 0.72, 0.45 (mean 0.64; controls 0 of 18).
With T28S+S63D+R100V+A101N the result was 0.50, 0.77, 0.25, 0.75, 0.54, 0.61 (mean 0.57; controls 0 of 18).
With S63N+R100Q+S107T the result was nd, nd, nd, 0.99, 1.47, nd (mean 1.23; controls 0 of 18).
With N30D+G61K+R100Q the result was 2.49, 1.65, 1.26, 1.01, 2.12, 1.09 (mean 1.60; controls 1 of 18).
With T28Q+S31E+G61S+R100T the result was 0.52, 0.57, 0.36, 0.17, 0.11, 0.36 (mean 0.35; controls 0 of 18).
With T28D+R100N+A101T+S107E the result was 0.09, 0.14, 0.39, -0.10, 0.13, -0.04 (mean 0.10; controls 1 of 18).
With T28E+F59A+R100K+A101N the result was 1.07, 1.20, 0.60, 0.71, 0.91, 0.56 (mean 0.84; controls 2 of 18).
With T28Q+S31E+G61A+S63Q+R100Q the result was 0.25, 0.06, 0.26, -0.46, 0.26, -0.02 (mean 0.06; controls 0 of 18).
With T28S+G61Q+A101T+S107V the result was 0.92, 1.02, 0.96, 1.07, 0.56, 0.71 (mean 0.87; controls 0 of 18).
With T28E+G61T+R100S+A101E the result was 0.17, 0.25, -0.45, -0.33, 0.21, 0.53 (mean 0.06; controls 0 of 18).
With T28G+G61A+R100K+S107V the result was 0.44, 0.05, 0.63, 0.32, 0.92, -0.02 (mean 0.39; controls 1 of 18).
With G61S+R100Q+A101T+S107K the result was 0.04, -0.34, -0.36, -0.50, -0.03, -0.51 (mean -0.28; controls 0 of 18).
With T28N+R100Q+A101T+S107A the result was 1.65, 2.49, 2.71, 0.53, 1.11, 0.81 (mean 1.55; controls 0 of 18).
With T28S+R100M+A101E+S107D the result was 1.07, 0.03, 0.09, -0.29, 0.23, 0.09 (mean 0.20; controls 0 of 18).
With T28E+S53A+R100T+S107K the result was 0.53, 0.18, 0.63, -0.07, -0.19, -0.23 (mean 0.14; controls 0 of 18).
With T28S+R56K+S63R+R100E the result was 1.13, 1.79, 0.92, 1.02, 0.71, 0.66 (mean 1.04; controls 0 of 18).
With T28E+S31N+G61S+S63A+R100K the result was 0.64, 0.40, 1.00, 0.61, 0.07, 0.58 (mean 0.55; controls 0 of 18).
With G26M+T28D+R100Q+A101V the result was 0.74, 0.70, 0.57, 0.45, 0.45, 1.28 (mean 0.70; controls 1 of 18).
With T28S+S63D+R100S+A101T the result was 0.06, -0.23, -0.17, -0.42, -0.49, -0.05 (mean -0.22; controls 0 of 18).
With T28H+G61A+S63D+R100Q the result was 1.65, 3.19, 1.85, 1.11, 1.92, 1.35 (mean 1.84; controls 0 of 18).
With T28E+S31T+R100K+S107T the result was 0.73, 0.28, 0.49, 0.53, 0.13, 0.38 (mean 0.42; controls 0 of 18).
With T28D+G61K+R100A the result was 0.41, 0.32, 0.56, 0.29, 0.12, 0.30 (mean 0.33; controls 0 of 18).
With T28Q+S31E+G61Q+R100N the result was 0.83, 0.25, 0.08, 0.31, 0.67, 0.56 (mean 0.45; controls 0 of 18).
With T28S+R100H+S107A the result was 0.36, 0.05, 0.56, 0.42, 0.25, 0.48 (mean 0.35; controls 0 of 18).

Values of this round are not directly comparable with the first-round values of the same sequences.
The parent sequence was in this pool as ten entries: three were never detected, three once, and four in most replicates, with averages from 0.34 to 2.37.
The authors averaged sequences with at least three values out of six and counted those with two or fewer as poor binders.

Source: Li et al. 2023 (doi:10.1038/s41467-023-39022-2), MIT Lincoln Laboratory and A-Alpha Bio; data file from the FLAb repository.